From patent US8933113B2 (Merck Sharp & Dohme Corp., priority 2011, dated 2015)

By UniProt entry, the sequences of proteins in these tests, tags left out.
UniProt P08235, whole entry: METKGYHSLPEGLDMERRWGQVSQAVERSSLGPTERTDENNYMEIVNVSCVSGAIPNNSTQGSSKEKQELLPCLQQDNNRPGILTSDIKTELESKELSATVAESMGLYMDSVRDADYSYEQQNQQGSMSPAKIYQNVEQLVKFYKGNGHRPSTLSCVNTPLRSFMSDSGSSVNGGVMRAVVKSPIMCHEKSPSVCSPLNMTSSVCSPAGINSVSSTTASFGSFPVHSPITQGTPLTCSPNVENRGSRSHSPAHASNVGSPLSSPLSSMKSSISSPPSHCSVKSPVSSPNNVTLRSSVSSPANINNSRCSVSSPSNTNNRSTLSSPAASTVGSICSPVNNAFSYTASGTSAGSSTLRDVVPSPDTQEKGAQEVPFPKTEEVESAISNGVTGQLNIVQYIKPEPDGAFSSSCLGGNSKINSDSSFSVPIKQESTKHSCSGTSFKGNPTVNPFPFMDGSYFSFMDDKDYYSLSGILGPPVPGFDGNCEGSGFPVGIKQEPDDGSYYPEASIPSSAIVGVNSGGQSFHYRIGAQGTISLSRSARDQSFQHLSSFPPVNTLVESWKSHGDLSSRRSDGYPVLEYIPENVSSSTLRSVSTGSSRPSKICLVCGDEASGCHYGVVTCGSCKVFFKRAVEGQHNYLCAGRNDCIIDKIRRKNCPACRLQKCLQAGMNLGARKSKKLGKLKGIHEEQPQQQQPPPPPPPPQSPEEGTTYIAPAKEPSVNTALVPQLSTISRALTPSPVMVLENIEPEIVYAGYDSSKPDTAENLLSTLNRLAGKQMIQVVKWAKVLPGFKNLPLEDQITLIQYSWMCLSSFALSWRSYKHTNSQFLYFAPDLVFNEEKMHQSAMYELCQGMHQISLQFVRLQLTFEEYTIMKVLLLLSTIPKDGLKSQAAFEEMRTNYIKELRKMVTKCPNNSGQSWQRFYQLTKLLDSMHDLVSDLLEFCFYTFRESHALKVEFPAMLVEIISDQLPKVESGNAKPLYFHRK

Biological target: full-length human Mineralocorticoid Receptor (MR) (Homo sapiens, UniProt P08235)
Test: human MR NH Pro assay (PathHunter Protein:Protein interaction assay), MR antagonist activity
Format: cell-based
Details: read-out: Primary Assay IP rating (IP = inflection point for a given dose-response titration curve); PathHunter CHO-K1 cells overexpressing human MR; aldosterone about 0.3 nM; 6 hours at 37° C.; luminescence

## CCC(CCF)(c1ccc(Cl)cc1)n1ccc2c(NS(C)(=O)=O)cccc21 (single isomer, unassigned)
  IC50: < 0.1 µM
